PubChem BioAssay AID651711 (Broad Institute, 2012)
This is a selection; strong and weak results do not stand in their true shares. Activity calls are given as the source filed them.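 The calls were made as follows: active = mean replicate inhibition above about 25%, with every replicate also reaching it (limit read from the data, passing the limit was not always enough); inconclusive = only one of those two criteria met; inactive = neither criterion met.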

Chains of the proteins cited; added tags and fusions are not shown. Lines headed by an entry give the natural chain unless they say otherwise; changes in a name come on top.
UniProt Q15084: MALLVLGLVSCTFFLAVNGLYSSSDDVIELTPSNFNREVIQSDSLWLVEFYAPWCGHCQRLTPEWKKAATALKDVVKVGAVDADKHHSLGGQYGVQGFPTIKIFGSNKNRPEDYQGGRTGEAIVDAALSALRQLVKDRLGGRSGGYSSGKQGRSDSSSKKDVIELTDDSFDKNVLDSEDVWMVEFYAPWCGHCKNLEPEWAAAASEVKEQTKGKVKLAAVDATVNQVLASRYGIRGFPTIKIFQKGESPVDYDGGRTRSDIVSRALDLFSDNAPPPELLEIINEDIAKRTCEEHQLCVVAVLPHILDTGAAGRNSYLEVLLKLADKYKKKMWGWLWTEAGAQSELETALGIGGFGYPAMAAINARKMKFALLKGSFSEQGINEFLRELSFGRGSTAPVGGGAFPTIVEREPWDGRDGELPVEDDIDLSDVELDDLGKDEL

Biological target: Protein disulfide-isomerase A6 (Homo sapiens) (UniProt Q15084)
Experiment: ERp5 (PDIA6) reductase activity blockers – biochemical, turbidity, absorbance 650 nm, single point, primary screen (AID 651711)
Details: ERp5 insulin aggregation, 90 min, at 9.99 µM, stronger effect = higher value

| SMILES | inhibition |
| --- | --- |
| O=P1(N(CCCl)CCCl)NCCC(C(F)(F)F)O1 (stereo not drawn) | inactive: -6.34% |
| CC(C)(C)C(=O)NC(Sc1ncccn1)C(Cl)(Cl)Cl (stereo not drawn) | inactive: 5.66% |
| CCOP(=O)(Nc1ccc(C)cn1)OCC | inactive: -1.03% |
| CN(CCCl)Cc1cc(Cl)c(NC2=NCCN2)c(Cl)c1 | inactive: -6.77% |
| CCC1=CC2Cc3nc4ccc(Cl)cc4c(N)c3C(C1)C2 (stereo not drawn) | inactive: -3.53% |
| CCOP(=O)(NC(=NC(C)c1ccccc1)NC(C)c1ccccc1)OCC (stereo not drawn) | inactive: 2.79% |
| CC(C)/C=N\N=C(\N)N[N+](=O)[O-] | inactive: 3.35% |
| CN(C(=O)Cc1ccc(Cl)c(Cl)c1)[C@@H]1CCCC[C@H]1N1CCCC1 | inactive: 3.99% |
| CN(C(=O)Cc1ccc(Cl)c(Cl)c1)C1CCCC[C@@H]1N1CCCC1 (stereo partly drawn) | inactive: -1.53% |
| COc1ccccc1CNC(=O)COC(=O)C(O)(c1ccccc1)c1ccccc1 | inactive: 2.57% |
| O=C(/C=C/c1ccccc1)OC1CN2CCC1CC2 (stereo not drawn) | inactive: 4.62% |
| CCCC1OP(=O)(Nc2ccccc2)OCC1CC (stereo not drawn) | inactive: 2.31% |
| CN(C)C1(CNC(=O)c2ccc(S(C)(=O)=O)cc2)CCCCC1 | inactive: -3.84% |
| CC1CCC(C(C)C)C(OP(=O)(Nc2ccccn2)c2ccccc2)C1 (stereo not drawn) | inactive: 4.18% |
| Cc1ccc(C(=O)OC2CN3CCC2CC3)cc1 (stereo not drawn) | inactive: -1.5% |
| O=[As](O)(c1cccs1)c1cccs1 | inactive: 5.01% |
| NS(=O)(=O)c1cccc(NC(=O)COC(=O)C(O)(c2ccccc2)c2ccccc2)c1 | inactive: 1.29% |
| Nc1cccc([As](=O)(O)c2ccccc2)c1 | inactive: 0.535% |
| Cc1ccc(S(=O)(=O)N(CCCN)CCCc2c(C)nc(N)[nH]c2=O)cc1 | inactive: -1.3% |
| Nc1ccccc1[As](=O)(O)c1ccccc1 | inactive: 2.84% |
| O=C(O)COc1ccc([As](=O)(O)O)cc1[N+](=O)[O-] | inactive: -3.24% |

| SMILES | inhibition |
| --- | --- |
| CCOP1(=S)c2c(C)nn(CCC#N)c2N=C(c2ccccc2F)N1C (stereo not drawn) | inactive: 3.61% |
| O=P(Nc1nccs1)(Oc1ccccc1)Oc1ccccc1 | inactive: 0.474% |
| CN(C)C(=O)c1cc([N+](=O)[O-])cc2c1-c1c(cc([N+](=O)[O-])cc1[N+](=O)[O-])C2=O | inactive: 6.31% |
| CN(C(=O)Cc1ccc(Cl)c(Cl)c1)[C@H]1CC[C@@]2(CCCO2)C[C@@H]1N1CCCC1 | inactive: 4.28% |
| N#CCCN(C(=O)COC(=O)C(O)(c1ccccc1)c1ccccc1)c1ccc(F)cc1 | inactive: 0.243% |
| CCOP1(=S)c2c(C)nn(CCC#N)c2N=C(c2ccc(F)cc2)N1C (stereo not drawn) | inactive: 5.81% |
| CN(C(=O)Cc1ccccc1)[C@@H]1CC[C@]2(CCCO2)C[C@H]1N1CCCC1 | inactive: 1.47% |
| NC(=O)Nc1ccc([As](=O)(O)O)cc1 | inactive: -3.54% |
| O=[As](O)(c1cccc(O)c1)c1cccc(O)c1 | inactive: -8.26% |
| O=[As](O)(O)c1cccnc1 | inactive: 3.69% |
| COc1cc(C(=O)NCC2(N3CCOCC3)CCCCC2)cc(Cl)c1OC(C)C | inactive: -3.33% |
| CS(=O)(=O)c1ccc(Cl)c(NC(=O)COC(=O)C(O)(c2ccccc2)c2ccccc2)c1 | inactive: 2.83% |
| O=C(OC1CN2CCC1CC2)c1ccc(Cl)cc1 (stereo not drawn) | inactive: -0.394% |
| CCOP(=O)(Nc1cccc2ccccc12)OCC | inactive: 3.3% |
| CCCOP(=S)(Nc1nc(N)cc(=O)[nH]1)OCCC | inactive: 0.165% |
| Nc1cccc2c([As](=O)(O)O)cccc12 | inactive: 1.72% |
| Cc1ccc(NCCc2c([N+](=O)[O-])cc([N+](=O)[O-])cc2[N+](=O)[O-])cc1 | inactive: 1.41% |
| COc1ccc2nc(NP(=O)(c3ccccc3)c3ccccc3)sc2c1 | inactive: 0.451% |
| COc1cc(I)ccc1[As](=O)(O)O | inactive: -3.04% |
| COc1ccc(CN2/C(=N\P(=O)(Oc3ccccc3)Oc3ccccc3)Cc3ccccc3C2C2CC2)cc1 (stereo not drawn) | inactive: -1.46% |
| O=P1(N(CCCl)CCCl)Nc2ccccc2N1 | inactive: -2.35% |

| SMILES | inhibition |
| --- | --- |
| O=P1(N(CCCl)CCCl)OCCCN1CCCl (stereo not drawn) | inactive: 1.62% |
| Cc1cc(=O)[nH]c(N[N+](=O)[O-])n1 | inactive: 4.58% |
| Cc1c2c(nc3ccccc13)SC(C(Cl)Cl)C2 (stereo not drawn) | inactive: 6.42% |
| COc1ccc(N/C(=N/P(=O)(N2CCOCC2)N2CCOCC2)N2CCOCC2)cc1 | inactive: 0.0365% |
| O=[N+]([O-])c1cc(Oc2ccc([N+](=O)[O-])cc2C(F)(F)F)cc([N+](=O)[O-])c1 | inactive: -6.6% |
| Cc1ccc2nc3c(c(C)c2c1)CC(C(Cl)Cl)S3 (stereo not drawn) | inactive: -1.57% |
| [N-]=[N+]=NC1CCCCC1NC(=O)c1cc([N+](=O)[O-])cc([N+](=O)[O-])c1 (stereo not drawn) | inactive: 9.92% |
| Cc1ccc(OP(=O)(Nc2ccc([N+](=O)[O-])cn2)Oc2ccc(C)cc2)cc1 | inactive: -1.32% |
| O=[As](O)(c1ccc(O)cc1)c1ccccc1O | inactive: 5.64% |
| C[As](=O)(O)c1cccc(C(=O)O)c1 | inactive: 0.347% |
| O=[N+]([O-])c1ccc(-c2cc([N+](=O)[O-])c(O)c([N+](=O)[O-])c2)cc1 | inactive: 2.08% |
| COc1cc(C(=O)NCC2(N3CCOCC3)CCCCC2)ccc1OCC(C)C | inactive: 4.14% |
| CC(C)NC(=O)NP(=O)(Oc1ccccc1)Oc1ccccc1 | inactive: -4.63% |
| O=C(OC1CN2CCC1CC2)c1cccc2[nH]cnc12 (stereo not drawn) | inactive: 4.78% |
| COC(=O)C1(C)COP(=O)(N2CCCCCC2)OC1 (stereo not drawn) | inactive: 1.82% |
| CC(C)c1ccc(OP(=O)(Nc2ccccn2)Oc2ccccc2F)cc1 (stereo not drawn) | inactive: -2.07% |
| CCCCOc1ccc(C(=O)NCC2(N3CCCCC3)CCCCC2)cc1OC | inactive: -0.32% |
| COP(=O)(OC)N1CC1c1ccccc1 (stereo not drawn) | inactive: 3.15% |
| CC1CCNP(=O)(N(CCCl)CCCl)O1 (stereo not drawn) | inactive: 4.51% |
| CCOC(=O)Nc1ccc([As](=O)(O)O)c(O)c1 | inactive: 2.58% |
| O=C(O)C(O)c1ccc(N(CCCl)CCCl)cc1 (stereo not drawn) | inactive: 12.5% |
